Measurements reported in ChEMBL document CHEMBL1138021, “Isoxazole carboxylic acids as protein tyrosine phosphatase 1B (PTP1B) inhibitors” (Bioorg Med Chem Lett, 2004).

Target: T1, Tyrosine-protein phosphatase non-receptor type 1 (Mus musculus, UniProt P35821)
T1 sequence (P35821 whole entry): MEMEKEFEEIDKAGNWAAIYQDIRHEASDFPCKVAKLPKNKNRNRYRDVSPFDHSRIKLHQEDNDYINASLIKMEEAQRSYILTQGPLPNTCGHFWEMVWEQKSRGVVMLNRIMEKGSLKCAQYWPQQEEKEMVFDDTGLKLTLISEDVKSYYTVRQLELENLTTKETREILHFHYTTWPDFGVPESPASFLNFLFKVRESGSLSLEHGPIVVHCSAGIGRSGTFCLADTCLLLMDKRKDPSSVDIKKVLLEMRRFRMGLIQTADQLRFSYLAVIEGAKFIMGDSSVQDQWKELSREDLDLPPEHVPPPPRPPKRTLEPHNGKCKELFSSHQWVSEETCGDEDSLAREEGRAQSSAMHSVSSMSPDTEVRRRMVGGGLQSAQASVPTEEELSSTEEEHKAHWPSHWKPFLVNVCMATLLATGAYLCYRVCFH
Assay: Binding affinity for mouse protein-tyrosine phosphatase 1B (PTP1B) expressed in COS 7 cells
Type: cell-based

Ki: 6.9 µM
SMILES: COC(=O)c1c(O)cccc1OC/C=C/c1ccc(F)c(-c2cc(C(=O)O)no2)c1
